The numbers were not newly measured in US20060160897A1, “Topical Use of Valproic Acid for the Prevention or Treatment of Skin Disorders” (priority 2003, published 2006), which cites them from elsewhere.

The conditions of the data set: metastatic renal cell carcinoma, 60/329 patients; cited from earlier work.

For the substance “interleukin 2: cytokine secreted by activated T cells, used in therapy of melanoma and renal cell carcinoma”, the “patients with antithyroid antibodies detected” value was 18%.
